Entries after “also recorded” stand apart in the source; their conditions may differ.
How the values were obtained:
[1] = tested on: K562 cells; test: Proliferation inhibition assay (WST-1); assay type: cell-based; settings: Homo sapiens, K562, read-out: IC50, proliferation inhibition
Text: The HEL, SET2 and K562 human cell lines were purchased from the German Collection of Microorganisms and Cell Cultures (DSMZ, Braunschweig, Germany). Murine BaF/3 and BaF/3-EPOR cells expressing JAK2 wild-type (wt) or JAK2V617F were donated by R. Skoda (Basel, Switzerland).

[2] = tested on: SET2 cells; test: Apoptosis by Annexin V flow cytometry; assay type: cell-based, human
Text: Results are expressed ad percent viable cells compared to control wells containing vehicle (DMSO) only. The fraction of necrotic cells was identified as the double-positive Annexin V/propidium iodide cells. One representative of three similar experiments. *, P<0.05; **, P<0.01.

[3] = tested on: SET2 cells; test: Cell cycle distribution analysis by flow cytometry; assay type: cell-based, human
[4] = tested on: HEL cells; test: Cell cycle distribution analysis by flow cytometry; assay type: cell-based, human
[5] = tested on: JAK2, STAT5, and 4EBP1 in SET2 cells; test: Western blot of mTOR and JAK/STAT signaling; assay type: cell-based, human
Protocol: Cells were resuspended in RIPA lysis buffer (50 mM pH 7.4 Tris-HCl, 150 mM NaCl, 1% NP-40, 1 mMEDTA) containing a proteinase inhibitor cocktail (Halt Protease Inhibitor Cocktail Kit, PIERCE, Rockford, Ill., US) and subjected to sodium dodecyl sulphate polyacrylamide gel electrophoresis separation and western blotting onto Immunoblot PVDF membrane (BioRad, Hercules, Calif., US), according to standard protocols.
SET2 cells were incubated for 24 h with increasing concentrations of the drugs, and the level of total and phosphorylated JAK2, STAT5, and 4EBP1 was analyzed by western blot. Tubulin was used for loading normalization. The results shown are representative of two to four similar experiments for the different drugs.

N#CC[C@H](C1CCCC1)n1cc(-c2ncnc3[nH]ccc23)cn1 [Compound A, (3R)-3-cyclopentyl-3-[4-(7H-pyrrolo[2,3-d]pyrimidin-4-yl)-1H-pyrazol-1-yl]propanenitrile]
IC50 [1]: > 20 µM

CC(C)n1nc(-c2cc3cc(O)ccc3[nH]2)c2c(N)ncnc21 [PP242, 2-(4-amino-1-isopropyl-1H-pyrazolo[3,4-d]pyrimidin-3-yl)-1H-indol-5-ol]
cell apoptosis (Annexin V-positive cells) [2]: modest, yet dose-dependent, cell apoptosis at highest concentrations; also recorded: some cell apoptosis as highest concentrations | cell cycle effect [3]: cell cycle arrest of SET2 and HEL cells in the G0/G1 phase | cell cycle effect [4]: cell cycle arrest of SET2 and HEL cells in the G0/G1 phase | phosphorylated JAK2 [5]: unaffected | phosphorylation of 4E-BP1 [5]: dose-dependently reduced phosphorylation; also recorded: inhibited the phosphorylation | phosphorylation of STAT5 [5]: dose-dependently reduced phosphorylation; also recorded: appreciable decrease of STAT5 phosphorylation | total JAK2 [5]: unaffected
